We go through three compounds from US20250034166A1, “POLYCYCLIC FUSED RING DERIVATIVES AND USE THEREOF” (Jacobio Pharmaceuticals Co., Ltd., priority 2021, published 2025).

Protein sequences, listed by entry. Tags and fused reporters are not part of them. Residues count along the entry.
UniProt P01116, 1-169 isoform 2 G12V limits assumed: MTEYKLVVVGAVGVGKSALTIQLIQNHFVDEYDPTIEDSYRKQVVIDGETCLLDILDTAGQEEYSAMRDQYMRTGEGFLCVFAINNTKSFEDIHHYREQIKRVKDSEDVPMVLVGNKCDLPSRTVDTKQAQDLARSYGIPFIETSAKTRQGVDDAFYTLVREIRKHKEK
UniProt P01116, 1-169 isoform 2 G12D limits assumed: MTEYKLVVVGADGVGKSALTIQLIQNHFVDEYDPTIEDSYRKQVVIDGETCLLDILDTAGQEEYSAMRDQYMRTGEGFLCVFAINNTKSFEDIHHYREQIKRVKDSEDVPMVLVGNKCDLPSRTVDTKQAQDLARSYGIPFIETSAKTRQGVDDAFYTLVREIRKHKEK

By pIC50 is commonly meant −log10 of the IC50, conventionally taken in molar units.

Assay [1] addresses T1, K-Ras G12D (Homo sapiens, UniProt P01116, G12D). The experiment in a line: SOS1 catalyzed nucleotide exchange assay (GDP form K-Ras), TR-FRET.
The target in assay [2] is T2, K-Ras G12V (Homo sapiens, UniProt P01116, G12V). Described as above.
Assay [3] deals with T2, K-Ras G12V. Briefly: GTP-K-Ras and cRAF interaction assay (GppNp-K-Ras), HTRF. The following applies: read-out: Biochemical assays, IC50 KRAS G12V GppNp, GppNp-loaded K-Ras G12V, cRAF RBD interaction. (In general: Time-resolved FRET reads energy transfer from a long-lived donor to a nearby acceptor.)
In assay [4] the test system is AGS cells (K-Ras G12D). The experiment in a line: Phospho-ERK1/2(THR202/TYR204) HTRF assay. To be noted: read-out: p-ERK, IC50 AGS, 2 hours incubation, tested form: TFA. The protocol: (§1) p-ERK (MAPK pathway) inhibition activity of each of compounds in a variety of K-Ras mutant and K-Ras WT cell lines indicated in Table 12 was evaluated. MKN-1 with K-Ras WT amplification is also a K-Ras dependent cell line.
(§2) Each of cells in culture medium was seeded in 96-well plates at density indicated in Table 16 and then put in a cell incubator to incubate overnight. The next day, the culture medium was removed and the compound diluted in assay medium was added in each well. After 2 hours incubation in a cell incubator, the assay medium in 96-well plates was removed, then 50 μL of 1× blocking reagent-supplemented lysis buffer (Cisbio) was added and the plates were incubated at 25° C. for 45 min with shaking. 10 μL of cell lysates from the 96-well plates were transferred to a 384-well plate (Greiner) containing […] HTRF® pre-mixed antibodies (Cisbio 64AERPEH). The plate was incubated 4 hours at 25° C. and then read HTRF signals on Tecan Spark multimode microplate reader. The data were analyzed using a 4-parameter logistic model to calculate IC50 values.

Assay [5] has as its system SW620 cells (K-Ras G12V). The experiment in a line: Phospho-ERK1/2(THR202/TYR204) HTRF assay. The protocol:
as §1, §2

Assay [6] relates to AGS cells (K-Ras G12D). The experiment in a line: 2D cell growth inhibition assay (CellTiter-Glo). The following applies: read-out: Cell Growth Inhibition, IC50 AGS, 6 days, absolute IC50, tested form: TFA. The protocol: (§3) The cell growth inhibition activity of each of compounds was tested by performing cell growth inhibition assays on a variety of K-Ras mutant and K-Ras WT cell lines indicated in Table 14.
(§4) Each of cells in culture medium was plated in TC-treated 96-well plates at a density indicated in Table 14 and incubated in a cell incubator overnight. The next day, each of compounds was diluted in culture medium and added to the plates. After 6 days incubation in cell incubator, the cell viability was detected by CellTiter-Glo® Cell Viability Assay kit (Promega). Luminescent signals were read on Tecan Spark multimode microplate reader and analyzed using a 4-parameter logistic model to calculate absolute IC50 values.

Assay [7] concerns SW620 cells (K-Ras G12V). Briefly: 2D cell growth inhibition assay (CellTiter-Glo). The following applies: read-out: Cell Growth Inhibition, IC50 SW620, 6 days, absolute IC50, tested form: TFA. The protocol:
as §3, §4
(In general: In ATP-based viability assays light output follows the ATP content of the culture.)

In assay [8] the test system is AsPC-1 cells (K-Ras G12D). The experiment in a line: 2D cell growth inhibition assay (CellTiter-Glo). The following applies: read-out: Cell Growth Inhibition, IC50 AsPC-1, AsPC-1 (G12D), 6 days, absolute IC50, tested form: TFA.
Assay [9] addresses T1, K-Ras G12D. The experiment in a line: GTP-K-Ras and cRAF interaction assay (GppNp-K-Ras), HTRF. To be noted: read-out: Biochemical assays, IC50 KRAS G12D GppNp, GppNp-loaded K-Ras G12D, cRAF RBD interaction.
Setting [10] is: read-out: Biochemical assays, IC50 KRAS G12V GDP, tested form: TFA.
The mark [11] stands for this setting: read-out: p-ERK, IC50 SW620, 2 hours incubation, tested form: TFA.

pIC50: −log10 of the molar value.

Regarding `C#Cc1c(F)ccc2cc(O)cc(-c3nc4c5c(nc(OC[C@@]67CCCN6C[C@H](F)C7)nc5c3F)N3CCCOC[C@H]3C(C)O4)c12` (single isomer, unassigned) [Compound 13A], the negative logarithm of the IC50 (pIC50) was 8.74 at K-Ras G12D [1] (read-out: Biochemical assays, IC50 KRAS G12D GDP, tested form: TFA); 8.91 on K-Ras G12V [2] (setting [10]); 7.60 at K-Ras G12V [3] (tested form: TFA); 8.16 with AGS cells (K-Ras G12D) [4]; 8.17 in the assay with SW620 cells (K-Ras G12V) [5] (setting [11]); 7.80 in the assay on AGS cells (K-Ras G12D) [6]. Also, the values for the pIC50 (in the assay on SW620 cells (K-Ras G12V) [7]; in assay [8]) were 7.88 and 6.65, respectively.
In the case of `C#Cc1c(F)ccc2cc(O)cc(-c3nc4c5c(nc(OC[C@@]67CCCN6C[C@H](F)C7)nc5c3F)N3CCCOC[C@H]3C(C)O4)c12` (single isomer, unassigned) [Compound 13B], the pIC50 on K-Ras G12V [2] (setting [10]) was 9.16; on K-Ras G12D [9] (tested form: TFA) it was 7.67; at K-Ras G12V [3] (tested form: TFA), 7.31; in the assay on AGS cells (K-Ras G12D) [4], 8.77; in the assay on SW620 cells (K-Ras G12V) [5] (setting [11]), 8.92; in the assay with AGS cells (K-Ras G12D) [6] it was 8.40. For the same compound, the results for the pIC50 (in the assay on SW620 cells (K-Ras G12V) [7]; in assay [8]) were 8.72 and 7.40, respectively.
In the case of `C#Cc1c(F)ccc2cc(O)cc(-c3nc4c5c(nc(OC[C@@]67CCCN6C[C@H](F)C7)nc5c3F)N3CCOC[C@H]3[C@@H](C)O4)c12`, the negative logarithm of the IC50 (pIC50) is 7.97 on K-Ras G12D [1] (read-out: Biochemical assays, IC50 KRAS G12D GDP); 8.22 on K-Ras G12V [2] (read-out: Biochemical assays, IC50 KRAS G12V GDP); 6.50 on K-Ras G12D [9]; 6.00 at K-Ras G12V [3]; 7.44 with SW620 cells (K-Ras G12V) [5] (read-out: p-ERK, IC50 SW620, 2 hours incubation).
